# This is a selection; strong and weak results do not stand in their true shares. Inconclusive results are not listed. Activity calls are given as the source filed them. The call rests on the fitted dose curve; in most records, active means well fitted inhibition curve with a large enough effect; inconclusive means small, poorly fitted or top-dose-only effect; inactive means no such curve, though single readings can be large or run the other way.
# Amino acid sequences for entries named in this document (tags omitted). A change or cut given only in a name is not applied to a line headed by its entry.
# UniProt O94782: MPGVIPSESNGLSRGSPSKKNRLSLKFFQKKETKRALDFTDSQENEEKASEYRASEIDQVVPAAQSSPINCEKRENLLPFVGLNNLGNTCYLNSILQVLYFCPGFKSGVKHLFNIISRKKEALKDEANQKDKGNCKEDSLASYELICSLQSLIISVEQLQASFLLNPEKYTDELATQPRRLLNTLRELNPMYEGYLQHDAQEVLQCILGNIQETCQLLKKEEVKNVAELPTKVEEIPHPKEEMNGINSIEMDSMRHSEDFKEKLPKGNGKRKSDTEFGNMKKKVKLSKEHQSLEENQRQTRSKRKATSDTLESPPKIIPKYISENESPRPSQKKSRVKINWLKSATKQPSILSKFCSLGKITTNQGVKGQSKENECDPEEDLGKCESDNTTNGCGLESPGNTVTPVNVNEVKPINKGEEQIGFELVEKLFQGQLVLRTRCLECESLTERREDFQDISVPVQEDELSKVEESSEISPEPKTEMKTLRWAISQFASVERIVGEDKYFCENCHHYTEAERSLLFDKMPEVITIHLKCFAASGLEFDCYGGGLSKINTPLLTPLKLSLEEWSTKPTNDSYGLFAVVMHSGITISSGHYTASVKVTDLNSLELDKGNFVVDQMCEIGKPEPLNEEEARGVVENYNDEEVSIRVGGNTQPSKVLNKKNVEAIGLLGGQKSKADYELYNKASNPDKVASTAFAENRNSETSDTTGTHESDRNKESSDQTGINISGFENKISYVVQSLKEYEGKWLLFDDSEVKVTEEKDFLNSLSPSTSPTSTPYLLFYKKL
# Target: Ubiquitin carboxyl-terminal hydrolase 1 (Homo sapiens) (UniProt O94782)
# Experiment: Inhibitors of USP1/UAF1: Primary Screen; further: nearly all actives have a fitted effect of over 60% in size
# Conditions: recombinant USP1/UAF1, Ub-Rhodamine cleavage fluorescence; at 57.1 µM (top of the series)
# Method in brief: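 High-throughput fluorogenic screen: 1nM USP1/UAF1 complex, Ub-Rho substrate 150nM final, 50mM HEPES pH 7.8 with 0.5mM EDTA, 0.1 mg/ml BSA, 1mM TCEP and 0.01% Tween-20.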
# On the % scale 0 is the no-effect control and ±100 the full control effect.
row,SMILES,"activity change, negative = inhibition"
1,COP(=O)(OC)N1CC1c1ccccc1 (stereo not given),inactive: -17.2%
2,COC(=O)C1(C)COP(=O)(N2CCCCCC2)OC1 (stereo not given),inactive: -8.94%
3,CC(C)c1ccc(OP(=O)(Nc2ccccn2)Oc2ccccc2F)cc1 (stereo not given),inactive: -15.5%
4,ClCCSc1nnc(-c2cccnc2)o1,inactive: -17.3%
5,O=[N+]([O-])c1cc([N+](=O)[O-])c(-c2ccn[nH]2)s1,inactive: -11%
6,CC(C)NC(=O)NP(=O)(Oc1ccccc1)Oc1ccccc1,inactive: -2.97%
7,CCN(CC)C(=S)SC(NC=O)C(Cl)(Cl)Cl (stereo not given),inactive: 5.36%
8,O=[N+]([O-])c1ccc(-c2cc([N+](=O)[O-])c(O)c([N+](=O)[O-])c2)cc1,inactive: -12.6%
9,COc1cc(C(=O)NCC2(N3CCOCC3)CCCCC2)ccc1OCC(C)C,inactive: -6.8%
10,C[As](=O)(O)c1cccc(C(=O)O)c1,inactive: -9.98%
11,O=[As](O)(c1ccc(O)cc1)c1ccccc1O,inactive: -9.97%
12,Cc1ccc2nc3c(c(C)c2c1)CC(C(Cl)Cl)S3 (stereo not given),inactive: -12%
13,Cc1ccc(OP(=O)(Nc2ccc([N+](=O)[O-])cn2)Oc2ccc(C)cc2)cc1,inactive: -0.963%
14,COc1ccc(N/C(=N/P(=O)(N2CCOCC2)N2CCOCC2)N2CCOCC2)cc1,inactive: -14.2%
15,O=[N+]([O-])c1cc(Oc2ccc([N+](=O)[O-])cc2C(F)(F)F)cc([N+](=O)[O-])c1,inactive: -6.83%
16,Cc1cc(=O)[nH]c(N[N+](=O)[O-])n1,inactive: -6.15%
17,O=C(OC1CN2CCC1CC2)C12CC3CC(CC(C3)C1)C2 (stereo not given),inactive: -2.57%
18,Cc1c2c(nc3ccccc13)SC(C(Cl)Cl)C2 (stereo not given),inactive: -19.1%
19,COc1cc(I)ccc1[As](=O)(O)O,inactive: -7.94%
20,COc1ccc2nc(NP(=O)(c3ccccc3)c3ccccc3)sc2c1,inactive: -24.7%
21,O=P1(N(CCCl)CCCl)OCCCN1CCCl (stereo not given),inactive: -5.3%
22,Nc1cc(N)c2nonc2c1[N+](=O)[O-],inactive: -15.7%
23,O=C(NC(Sc1ccncn1)C(Cl)(Cl)Cl)c1ccccc1 (stereo not given),inactive: -6.94%
24,Oc1ccccc1CNc1ccccn1,inactive: -20.4%
25,NC(=O)c1cc([N+](=O)[O-])cc([N+](=O)[O-])c1N,inactive: -22.3%

row,SMILES,"activity change, negative = inhibition"
1,Cc1ccc(N/C(=N/P(=O)(N2CCOCC2)N2CCOCC2)N2CCOCC2)cc1,inactive: -25.3%
2,Cc1ccc(OP(=O)(Nc2nccs2)Oc2ccc(C)cc2)cc1,inactive: -14.2%
3,COc1ccccc1OP(=O)(Nc1ccc(C)cn1)Oc1ccccc1OC,inactive: -1.24%
4,CN1CCCC(OC(=O)C(c2ccccc2)c2ccccc2)C1 (stereo not given),inactive: -15.8%
5,Clc1ccc(Cl)c(NC2=NCC(CBr)S2)c1 (stereo not given),inactive: -15.4%
6,CCN(N=Nc1nonc1N)c1nonc1N,inactive: -3.48%
7,CCCC1OP(N)(=O)OCC1CC (stereo not given),inactive: -13%
8,CC(=O)Nc1ccc([As](=O)(O)O)cc1,inactive: -14.6%
9,O=C(O)c1ccccc1[As](=O)(O)O,inactive: -12.4%
10,O=P(Nc1nc2ccc(Cl)cc2s1)(c1ccccc1)c1ccccc1,inactive: -21.2%
11,CN(C)P(=O)(N(C)C)n1c(Nc2ccccc2)nnc1-c1ccccc1,inactive: -23.1%
12,CN(C(=O)Cc1ccc(Cl)c(Cl)c1)[C@H]1CCCC[C@@H]1N1CCCC1,inactive: -13.1%
13,Cc1ccc(NP(=O)(Oc2ccccc2F)Oc2ccccc2F)nc1,inactive: -3.39%
14,Cc1cc(SC(NC(=O)c2ccc(F)cc2)C(Cl)(Cl)Cl)ncn1 (stereo not given),inactive: -6.79%
15,CCOP(=O)(Nc1ccccc1)OCC,inactive: -23.3%
16,CC(C)(C)C(=O)NC(Sc1ccncn1)C(Cl)(Cl)Cl (stereo not given),inactive: -22.8%
17,O=[N+]([O-])c1ncn(CCn2ncnc2[N+](=O)[O-])n1,inactive: -4.29%
18,COC(=O)C1(C)COP(=O)(Nc2ccccc2)OC1 (stereo not given),inactive: -18.6%
19,O=[N+]([O-])c1cccc(NC2=NCC(CBr)S2)c1 (stereo not given),inactive: -26%
20,O=C(O)CNc1ccc([As](=O)(O)O)cc1,inactive: -5.38%
21,O=P1(N(CCCl)CCCl)OCCCS1 (stereo not given),inactive: -21.4%
22,O=C(Nc1cc([As](=O)(O)O)ccc1O)c1ccccc1,inactive: -1.6%
23,Nc1ccc([As](=O)(O)c2ccc(N)cc2)cc1,inactive: -17.6%
24,CCN(/C(=N/P(=O)(N1CCOCC1)N1CCOCC1)N1CCOCC1)c1ccc(OC)cc1,inactive: 3.98%
25,CN(C)C(=O)OCCc1n(C)cc[n+]1C,inactive: -18.7%

row,SMILES,"activity change, negative = inhibition"
1,CC(C)c1nc(Nc2ccccc2)n(P(=O)(N(C)C)N(C)C)n1,inactive: -21.5%
2,CC(C)=N/N=C(\N)N[N+](=O)[O-],inactive: -18.9%
3,CC1CCN(C(=O)Oc2c(Cl)cc(Cl)c3cccnc23)CC1,inactive: -16.6%
4,c1cc(-c2nn[nH]n2)ccc1-c1nn[nH]n1,inactive: -23.6%
5,COc1ccc(C2=NCC(CBr)S2)cc1 (stereo not given),inactive: -19.4%
6,CC(=O)N1C2C3N(C(C)=O)C1C1N(C(C)=O)C(C(N1C(C)=O)N3C(C)=O)N2C(C)=O,inactive: -24.1%
7,O=[N+]([O-])c1cccc2n[nH]nc12,inactive: 0.825%
8,O=[N+]([O-])c1cc([N+](=O)[O-])c(CCNc2ccccc2)c([N+](=O)[O-])c1,inactive: -10.3%
9,Cc1ccc(NP(=O)(Oc2ccccc2)Oc2ccccc2)nc1,inactive: -17.2%
10,O=P(Nc1nccs1)(c1ccccc1)c1ccccc1,inactive: -17.8%
11,CC(C)C(=O)NC(Sc1ccccc1)C(Cl)(Cl)Cl (stereo not given),inactive: -16.2%
12,c1nnnn1CCn1cnnn1,inactive: -11.5%
13,O=[N+]([O-])c1ncn(CCn2cnc([N+](=O)[O-])n2)n1,inactive: -8.8%
14,CC(=O)NC(SC(=S)N(C)C)C(Cl)(Cl)Cl (stereo not given),inactive: 1.42%
15,O=[N+]([O-])c1ccc(O)c(/C=N/Nc2ccc([N+](=O)[O-])cc2[N+](=O)[O-])c1,inactive: -1.89%
16,O=[As](O)(c1ccccc1)c1ccc(O)cc1,inactive: -6.36%
17,C(Cc1nn[nH]n1)Cc1nn[nH]n1,inactive: -13.7%
18,Nc1ccc([As](=O)(O)c2ccc([N+](=O)[O-])cc2)cc1,inactive: -6.12%
19,O=C(OC1CN2CCC1CC2)c1cccc(Cl)c1 (stereo not given),inactive: -8.41%
20,COc1ccc(N)c([N+](=O)[O-])c1[N+](=O)[O-],inactive: -7.13%
21,CN(C)C1(CNC(=O)c2ccc(Cl)c(S(N)(=O)=O)c2)CCCCC1,inactive: -8.85%
22,O=P(Nc1ccccn1)(c1ccc(Br)cc1)c1ccc(Br)cc1,inactive: -15.5%
23,C[C@H]1OP(=O)(Oc2ccccc2)[C@H](O)[C@H](O)[C@H]1N=[N+]=[N-] (stereo not given in full),inactive: -27.4%
24,O=P(Nc1nc2ccccc2s1)(c1ccccc1)c1ccccc1,inactive: -11.6%
25,Cc1ccc(OP(=O)(Nc2ccccn2)Oc2ccc(C)cc2)cc1,inactive: 0.619%

row,SMILES,"activity change, negative = inhibition"
1,CC(=O)NC(SC(=S)N(CC(C)C)CC(C)C)C(Cl)(Cl)Cl (stereo not given),inactive: -9.42%
2,COC(=O)c1cc2c(s1)N=C(c1ccccc1)N(C)P2(=O)N1CCOCC1 (stereo not given),inactive: -6.51%
3,CCC(=O)N1C2C3N(C(=O)CC)C1C1N(C(=O)CC)C(C(N1C(=O)CC)N3C(=O)CC)N2C(=O)CC,inactive: 3.12%
4,O=C(OC1CN2CCC1CC2)c1ccccc1 (stereo not given),inactive: -1.72%
5,O=c1c2cc([N+](=O)[O-])ccc2[nH]c2c([N+](=O)[O-])cc([N+](=O)[O-])cc12,inactive: -18.7%
6,CN(C)C(=O)Oc1noc2ccccc12,inactive: -13.6%
7,CC(NC(=O)COC(=O)C(O)(c1ccccc1)c1ccccc1)c1ccccc1 (stereo not given),inactive: -7.57%
8,Cc1ccccc1OP(=O)(Nc1ccccn1)Oc1ccccc1C,inactive: -13%
9,O=C(NC1CCS(=O)(=O)C1)NP(=S)(Oc1ccccc1)Oc1ccccc1 (stereo not given),inactive: -3.98%
10,CCNC(=S)/N=C(\N)N[N+](=O)[O-],inactive: -5.98%
11,Cc1ccc(NP(=O)(Oc2cccc(C)c2)Oc2cccc(C)c2)nc1,inactive: -26.1%
12,c1ccc(-c2nn[nH]n2)c(-c2nn[nH]n2)c1,inactive: -17.6%
13,O=P1(N(CCCl)CCCl)OCCC2CCCCN21 (stereo not given),inactive: -13.3%
14,COC(=O)C1(C)COP(=O)(NCc2ccccc2)OC1 (stereo not given),inactive: -12.9%
15,CC(=O)c1ccc(N2CC2c2ccncc2)cc1 (stereo not given),inactive: -16.7%
16,N#C/C(=C\c1ccc(N(CCBr)CCBr)cc1)C(N)=O,inactive: -7.25%
17,C[C@H]1OP(=O)(Oc2ccccc2)C[C@@H]2O[C@@H]21 (stereo not given in full),inactive: -1.39%
18,C[C@@H]1C=CCP(=O)(Oc2ccccc2)O1 (stereo not given in full),inactive: -24.2%
19,Cc1ccccc1CN(C)C(=O)COC(=O)C(O)(c1ccccc1)c1ccccc1,inactive: -2.42%
20,CC(=O)Nc1ccc(Oc2c([N+](=O)[O-])cc([N+](=O)[O-])cc2[N+](=O)[O-])cc1,inactive: -20.1%
21,CC(=O)Nc1ccc([As](=O)(O)O)c(O)c1,inactive: -21.5%
22,CCOc1ccc(C2=NCC(CBr)S2)cc1 (stereo not given),inactive: -7.59%
23,O=P1(Nc2nc3ccc(Cl)cc3s2)COc2ccccc2O1 (stereo not given),inactive: -18.5%
24,CCc1cc(O)c([N+](=O)[O-])c(C)c1[N+](=O)[O-],inactive: -19.5%
25,CC(C)(C)C(=O)NC(Sc1ccccc1)C(Cl)(Cl)Cl (stereo not given),inactive: -26.5%

# Reference: PubChem BioAssay AID743255 (National Center for Advancing Translational Sciences (NCATS), 2014)
